The values below are quoted from earlier work in patent US20250000903A1, “EXPANSION PROCESSES AND AGENTS FOR TUMOR INFILTRATING LYMPHOCYTES” (Iovance Biotherapeutics, Inc., priority 2021, published 2025).

The conditions of the data set: 1 mg vial, according to the COA; cited from earlier work.

Regarding “rhIL-2 lot 10200121: purified, lyophilized recombinant human interleukin-2 (Cellgenix lot)”, the specific activity is reported as 25×10^6 IU/mg.
